Experimental findings from article PMC5127641 are described below.

By UniProt entry, the sequences of proteins in these tests, tags left out. Where a name states a change or a piece, a line headed by the entry shows the natural chain unless it says otherwise.
UniProt Q07820: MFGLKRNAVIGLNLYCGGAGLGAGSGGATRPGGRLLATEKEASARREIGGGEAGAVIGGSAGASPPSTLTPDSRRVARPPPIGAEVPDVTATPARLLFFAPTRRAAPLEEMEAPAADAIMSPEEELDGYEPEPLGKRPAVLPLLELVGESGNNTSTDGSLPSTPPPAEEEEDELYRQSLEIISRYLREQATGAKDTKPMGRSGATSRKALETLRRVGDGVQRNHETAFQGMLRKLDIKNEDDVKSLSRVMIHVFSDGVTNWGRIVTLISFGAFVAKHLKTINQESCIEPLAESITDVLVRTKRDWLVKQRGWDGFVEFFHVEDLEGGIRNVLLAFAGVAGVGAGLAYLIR

For this assay, the target named is Mcl-1, biotinylated (C-terminal avi-6His) (human) (UniProt Q07820).

As to “αMCL1 (anti-Mcl-1; computational design M-CDP04) (designed binder)”, the decrease in long-term (seven day) colony survival of Mcl-1-dependent MEFs on induced expression of αMCL1 was determined as 90%.
